Test system: Huh7 cells

SMILES: CC(C)(C)[C@H](NC(=O)[C@@H](NC(=O)c1cnccn1)C1CCCCC1)C(=O)N1CC2(Cc3ccccc3C2)C1C(=O)NC(CC1CCC1)C(=O)C(=O)NC1CC1 (stereo partly shown) [Compound 37a]
- Toxicity toward Huh7 cells, in words: toxic
